Source: patent publication US6410508B1 (priority 1998, dated 2002)
Where two headings read alike, the source gives them in different places.

Settings: for weight after six weeks: mean±sem

CC[C@H](C)[C@H](NC(=O)[C@H](CO)NC(=O)[C@H](Cc1ccc(O)cc1)NC(=O)[C@H](CC(=O)O)NC(=O)[C@H](CO)NC(=O)[C@@H](NC(=O)[C@H](Cc1ccccc1)NC(=O)[C@@H](NC(=O)CNC(=O)[C@H](CCC(=O)O)NC(=O)[C@H](C)NC(=O)[C@@H](N)Cc1ccc(O)cc1)[C@@H](C)O)[C@@H](C)CC)C(=O)N[C@@H](C)C(=O)N[C@@H](CCSC)C(=O)N[C@@H](CC(=O)O)C(=O)N[C@@H](CCCCN)C(=O)N[C@H](C(=O)N[C@@H](Cc1c[nH]cn1)C(=O)N[C@@H](CCC(N)=O)C(=O)N[C@@H](CCC(N)=O)C(=O)N[C@@H](CC(=O)O)C(=O)N[C@@H](Cc1ccccc1)C(=O)N[C@H](C(=O)N[C@@H](CC(N)=O)C(=O)N[C@@H](Cc1c[nH]c2ccccc12)C(=O)N[C@@H](CC(C)C)C(=O)N[C@@H](CC(C)C)C(=O)N[C@@H](C)C(=O)N[C@@H](CCC(N)=O)C(=O)N[C@@H](CCCCN)C(=O)NCC(=O)N[C@@H](CCCCN)C(=O)N[C@@H](CCCCN)C(=O)N[C@@H](CC(N)=O)C(=O)N[C@@H](CC(=O)O)C(=O)N[C@@H](Cc1c[nH]c2ccccc12)C(=O)N[C@@H](CCCCN)C(=O)N[C@@H](Cc1c[nH]cn1)C(=O)N[C@@H](CC(N)=O)C(=O)N[C@H](C(=O)N[C@H](C(=O)N[C@@H](CCC(N)=O)C(=O)O)[C@@H](C)O)[C@@H](C)CC)C(C)C)[C@@H](C)CC [GIP, Glucose-dependent Insulinotropic Peptide]
effect on weight (OVX and non-OVX rats, six weeks): no effect on weight
weight after six weeks (OVX rats (OVX+GIP)): 305.1±5.2 grams
weight after six weeks (non-OVX rats (Control+GIP)): 234.5±5.5 grams
blood sugars, GIP versus saline (rats, GIP 0.05 mg/kg daily, checked throughout the study): no statistically significant difference
